target: Dual specificity protein kinase CLK4 (Homo sapiens, UniProt Q9HAZ1); experiment: Inhibition of Clk4

The chains behind the UniProt entries cited, without tags or fusion partners. Where a name states a change or a piece, a line headed by the entry shows the natural chain unless it says otherwise.
UniProt Q9HAZ1: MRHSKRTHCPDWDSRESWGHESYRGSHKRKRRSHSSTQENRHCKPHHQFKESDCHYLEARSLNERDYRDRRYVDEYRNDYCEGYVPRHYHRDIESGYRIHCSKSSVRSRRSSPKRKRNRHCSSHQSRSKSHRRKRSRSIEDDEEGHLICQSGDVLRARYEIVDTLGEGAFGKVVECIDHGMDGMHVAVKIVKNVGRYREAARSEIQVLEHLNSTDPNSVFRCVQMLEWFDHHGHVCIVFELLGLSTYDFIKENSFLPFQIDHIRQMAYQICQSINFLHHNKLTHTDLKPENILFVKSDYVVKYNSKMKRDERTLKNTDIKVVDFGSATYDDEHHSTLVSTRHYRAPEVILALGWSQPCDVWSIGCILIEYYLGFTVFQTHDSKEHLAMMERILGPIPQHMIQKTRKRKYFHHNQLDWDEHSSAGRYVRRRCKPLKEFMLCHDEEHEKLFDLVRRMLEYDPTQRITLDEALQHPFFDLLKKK

IC50 | SMILES
141 nM | c1csc(CNc2ncnc3ccc(-c4ccc5c(c4)OCCO5)cc23)c1
282 nM | Cc1cccc(CNc2ncnc3ccc(-c4c(C)noc4C)cc23)c1
891 nM | Cc1noc(C)c1-c1ccc2ncnc(NCc3cccnc3)c2c1

From ChEMBL document CHEMBL1156118, “Evaluation of substituted 6-arylquinazolin-4-amines as potent and selective inhibitors of cdc2-like kinases (Clk)” (Bioorg Med Chem Lett, 2009)
